From patent US20160287666A1 (priority 2015, published 2016)
pIC50: −log10 of the molar value. Ends that are not written are not given here.

Sequences of proteins named here, by UniProt entry; tags and fusion partners are left off. A change or cut given only in a name is not applied to a line headed by its entry.
UniProt Q15858: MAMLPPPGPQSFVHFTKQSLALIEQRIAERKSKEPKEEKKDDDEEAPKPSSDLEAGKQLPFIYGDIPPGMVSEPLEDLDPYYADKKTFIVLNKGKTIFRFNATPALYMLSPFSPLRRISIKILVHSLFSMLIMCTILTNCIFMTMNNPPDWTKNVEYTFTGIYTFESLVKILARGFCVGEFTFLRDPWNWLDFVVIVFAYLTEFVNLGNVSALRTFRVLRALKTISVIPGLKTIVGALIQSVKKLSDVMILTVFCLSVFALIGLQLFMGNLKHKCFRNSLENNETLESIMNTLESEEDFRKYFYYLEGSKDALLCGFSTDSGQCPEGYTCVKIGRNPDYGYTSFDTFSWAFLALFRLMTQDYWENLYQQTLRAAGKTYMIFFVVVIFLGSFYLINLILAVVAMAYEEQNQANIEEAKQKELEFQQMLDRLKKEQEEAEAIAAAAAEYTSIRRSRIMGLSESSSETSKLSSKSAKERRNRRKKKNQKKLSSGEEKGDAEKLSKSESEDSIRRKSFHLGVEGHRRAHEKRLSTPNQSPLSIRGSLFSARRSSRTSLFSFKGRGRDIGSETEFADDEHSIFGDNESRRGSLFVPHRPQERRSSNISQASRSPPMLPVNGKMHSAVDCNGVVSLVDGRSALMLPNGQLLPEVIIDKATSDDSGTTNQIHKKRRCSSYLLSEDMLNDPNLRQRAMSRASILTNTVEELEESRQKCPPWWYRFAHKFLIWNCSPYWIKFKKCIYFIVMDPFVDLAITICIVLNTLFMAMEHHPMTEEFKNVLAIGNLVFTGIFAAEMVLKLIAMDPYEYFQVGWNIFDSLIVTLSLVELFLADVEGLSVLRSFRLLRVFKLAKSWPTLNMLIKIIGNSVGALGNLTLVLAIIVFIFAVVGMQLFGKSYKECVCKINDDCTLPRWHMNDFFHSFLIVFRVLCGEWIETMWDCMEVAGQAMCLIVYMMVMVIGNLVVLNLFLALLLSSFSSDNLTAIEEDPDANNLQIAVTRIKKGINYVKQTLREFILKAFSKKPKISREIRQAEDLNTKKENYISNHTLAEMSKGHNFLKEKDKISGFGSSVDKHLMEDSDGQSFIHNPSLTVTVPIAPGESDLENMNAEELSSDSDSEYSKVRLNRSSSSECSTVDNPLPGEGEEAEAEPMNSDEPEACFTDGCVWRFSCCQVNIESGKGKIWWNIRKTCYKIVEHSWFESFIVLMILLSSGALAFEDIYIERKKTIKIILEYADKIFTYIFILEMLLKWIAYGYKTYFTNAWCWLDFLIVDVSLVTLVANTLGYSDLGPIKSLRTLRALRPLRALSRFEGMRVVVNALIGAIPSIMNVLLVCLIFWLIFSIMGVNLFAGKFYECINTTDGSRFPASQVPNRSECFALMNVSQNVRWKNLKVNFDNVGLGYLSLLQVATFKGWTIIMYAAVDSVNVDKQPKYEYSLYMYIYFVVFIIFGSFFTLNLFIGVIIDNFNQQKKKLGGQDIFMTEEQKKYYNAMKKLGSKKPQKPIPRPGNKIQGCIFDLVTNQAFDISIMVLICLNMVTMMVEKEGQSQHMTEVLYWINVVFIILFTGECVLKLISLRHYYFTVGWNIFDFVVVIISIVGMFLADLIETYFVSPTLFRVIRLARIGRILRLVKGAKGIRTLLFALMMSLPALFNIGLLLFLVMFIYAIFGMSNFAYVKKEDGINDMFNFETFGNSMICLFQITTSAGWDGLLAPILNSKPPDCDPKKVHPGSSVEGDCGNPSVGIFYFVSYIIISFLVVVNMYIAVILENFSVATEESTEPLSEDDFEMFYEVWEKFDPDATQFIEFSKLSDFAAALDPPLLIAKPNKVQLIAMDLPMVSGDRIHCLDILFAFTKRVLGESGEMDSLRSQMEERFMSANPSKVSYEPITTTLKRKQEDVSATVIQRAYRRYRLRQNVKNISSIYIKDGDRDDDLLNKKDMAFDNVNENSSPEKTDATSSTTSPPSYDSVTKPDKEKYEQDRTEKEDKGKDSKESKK
UniProt Q9UQD0, whole entry: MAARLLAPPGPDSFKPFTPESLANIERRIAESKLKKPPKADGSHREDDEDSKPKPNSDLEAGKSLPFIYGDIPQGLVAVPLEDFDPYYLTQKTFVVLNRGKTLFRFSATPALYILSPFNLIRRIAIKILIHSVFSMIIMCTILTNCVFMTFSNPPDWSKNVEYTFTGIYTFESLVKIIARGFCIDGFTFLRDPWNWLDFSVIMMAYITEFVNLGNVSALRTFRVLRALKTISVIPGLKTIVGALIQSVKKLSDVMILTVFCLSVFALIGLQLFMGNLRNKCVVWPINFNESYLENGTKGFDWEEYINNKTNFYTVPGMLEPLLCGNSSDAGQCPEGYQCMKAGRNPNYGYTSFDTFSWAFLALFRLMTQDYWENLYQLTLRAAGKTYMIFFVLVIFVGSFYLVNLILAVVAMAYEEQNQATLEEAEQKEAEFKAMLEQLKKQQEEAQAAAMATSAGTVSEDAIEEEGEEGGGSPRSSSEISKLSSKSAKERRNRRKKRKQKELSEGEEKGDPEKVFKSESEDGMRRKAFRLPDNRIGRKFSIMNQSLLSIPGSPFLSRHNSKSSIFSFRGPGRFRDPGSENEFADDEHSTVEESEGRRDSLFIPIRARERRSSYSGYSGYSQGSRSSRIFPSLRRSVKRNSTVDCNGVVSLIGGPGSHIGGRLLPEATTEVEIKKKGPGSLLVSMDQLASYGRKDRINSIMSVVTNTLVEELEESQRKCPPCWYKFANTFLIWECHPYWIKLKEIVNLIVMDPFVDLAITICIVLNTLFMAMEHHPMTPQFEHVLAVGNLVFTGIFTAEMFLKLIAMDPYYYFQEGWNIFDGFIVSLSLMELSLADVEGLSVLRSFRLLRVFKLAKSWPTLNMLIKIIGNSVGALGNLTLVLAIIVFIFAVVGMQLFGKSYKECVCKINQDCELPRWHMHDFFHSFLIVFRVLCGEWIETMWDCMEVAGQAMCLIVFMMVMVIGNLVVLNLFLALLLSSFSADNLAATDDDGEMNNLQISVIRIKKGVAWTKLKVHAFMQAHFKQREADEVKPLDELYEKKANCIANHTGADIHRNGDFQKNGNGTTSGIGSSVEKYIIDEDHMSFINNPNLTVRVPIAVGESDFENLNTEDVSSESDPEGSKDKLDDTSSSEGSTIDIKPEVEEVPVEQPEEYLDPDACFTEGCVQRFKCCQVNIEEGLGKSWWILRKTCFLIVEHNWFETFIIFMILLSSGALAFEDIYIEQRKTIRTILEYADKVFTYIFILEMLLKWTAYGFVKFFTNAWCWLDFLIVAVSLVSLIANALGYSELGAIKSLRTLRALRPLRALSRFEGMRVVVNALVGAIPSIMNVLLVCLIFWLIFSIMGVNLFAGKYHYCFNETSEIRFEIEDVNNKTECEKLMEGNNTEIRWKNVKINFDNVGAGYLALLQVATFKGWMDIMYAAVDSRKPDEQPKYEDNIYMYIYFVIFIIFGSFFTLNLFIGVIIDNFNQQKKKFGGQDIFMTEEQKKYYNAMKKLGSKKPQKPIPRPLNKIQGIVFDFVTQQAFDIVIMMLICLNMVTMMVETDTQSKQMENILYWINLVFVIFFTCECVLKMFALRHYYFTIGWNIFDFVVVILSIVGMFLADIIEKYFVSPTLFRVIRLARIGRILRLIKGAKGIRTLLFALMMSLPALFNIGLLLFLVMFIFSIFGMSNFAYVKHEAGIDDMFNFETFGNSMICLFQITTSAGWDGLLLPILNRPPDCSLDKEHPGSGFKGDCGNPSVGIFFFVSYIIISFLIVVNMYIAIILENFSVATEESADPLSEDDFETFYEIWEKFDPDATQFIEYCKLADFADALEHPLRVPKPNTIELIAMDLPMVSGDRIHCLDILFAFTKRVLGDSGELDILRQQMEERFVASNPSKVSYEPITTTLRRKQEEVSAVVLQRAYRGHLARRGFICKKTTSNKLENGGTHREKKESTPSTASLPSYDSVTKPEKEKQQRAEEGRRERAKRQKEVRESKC

What was measured:
human Nav1.7 = human Nav1.7 (Homo sapiens, UniProt Q15858, W1161R); assay type: cell-based; details: read-out: Nav1.7 IC50
human Nav1.6 = human Nav1.6 (Homo sapiens, UniProt Q9UQD0); assay type: cell-based

Substance	pIC50 (human Nav1.7)	selectivity towards Nav1.7 compared to recombinant Protoxin-II (human Nav1.6)
GPYCQKWMQTCDANRKCCEGFSCRLWCKKKLW-NH2 [NV1D3586-NH2]	8.37	–
GPSCQKWFWTCDAERKCCEGLVCRLWCKKKLW-NH2 [NV1D2890-NH2]	8.04	–
Ac-QCQKWMQTCDRERKCCEGFVCTLWCRKKLW-NH2 [(-GP) N-Ac-NV1D3034-NH2]	8.12	–
GPQCQKWMQTCDAERKCCEGFVCRLWCKKKLW-NH2 [NV1D2775-NH2]	8.30	–
GPQCQKWMQTCDRTRKCCEGFVCTLWCRKKLW-NH2 [NV1D3368-NH2]	7.69	–
GPSCQKWMQTCDAERKCCEGFVCRLWCKKKLW-OH (cysteine pairing not given here) [NV1D2773]	–	improved selectivity
GPQCQKWMQTCDRERKCCEGFVCTLWCRKKLW-NH-methyl [NV1D3034-NH-methyl]	8.15	–
Ac-QCQKWMQTCDAERKCCEGFSCTLWCKKKLW-NH2 [(-GP) N-Ac-NV1D2974-NH2]	8.19	–
GPQCQKWMQTCDRERKCCEGFVCTLWCRKKLW-NH2 [NV1D3034-NH2]	7.91	–
GPQCQKWMQTCDRERKCCEGFVCTLWCRKKLW-NH-butyl [NV1D3034-NH-butyl]	7.78	–
